Experimental findings from ChEMBL document CHEMBL3098072 (Bioorg Med Chem, 2014) are described below.

Values after ≈ are worked out from the molar mass of the structure shown.

Common to all, as to assay: microbe, parasite or virus in culture
One assay concerns Staphylococcus aureus. The note with it: 20 h.
The test system of the next assay is Bacillus subtilis. Particulars: 20 h.
The test system of assay [1] is Mycobacterium tuberculosis. The note with it: H37Rv, 96 h.

For `Clc1cccc(C2CCN(c3nncc(-c4ccccc4)n3)C2)c1` (centres undefined), the MIC with Staphylococcus aureus was greater than 50 µM; against Bacillus subtilis, 16 µM (≈ 5.39 µg/mL); in assay [1] it was 32 µM (≈ 10.8 µg/mL).
The like results for `Nc1cccc(-c2cnnc(N3CCC(c4cccc(Cl)c4)C3)n2)c1` (centres undefined) were, in that order, 30 µM (≈ 10.6 µg/mL), 32 µM (≈ 11.3 µg/mL) and 29.7 µM (≈ 10.4 µg/mL).
The matching figures for `COc1ccc(-c2cnnc(N3CCC(c4cccc(Cl)c4)C3)n2)cc1OC` (centres undefined): greater than 50 µM, 16 µM (≈ 6.35 µg/mL) and 15.4 µM (≈ 6.11 µg/mL).
